Our source for the fluorescence ratio to DMSO values is PubChem BioAssay AID602162 (NMMLSC, 2011).

Amino acid sequences for entries named in this document (tags omitted).
UniProt Q9NP58, whole entry: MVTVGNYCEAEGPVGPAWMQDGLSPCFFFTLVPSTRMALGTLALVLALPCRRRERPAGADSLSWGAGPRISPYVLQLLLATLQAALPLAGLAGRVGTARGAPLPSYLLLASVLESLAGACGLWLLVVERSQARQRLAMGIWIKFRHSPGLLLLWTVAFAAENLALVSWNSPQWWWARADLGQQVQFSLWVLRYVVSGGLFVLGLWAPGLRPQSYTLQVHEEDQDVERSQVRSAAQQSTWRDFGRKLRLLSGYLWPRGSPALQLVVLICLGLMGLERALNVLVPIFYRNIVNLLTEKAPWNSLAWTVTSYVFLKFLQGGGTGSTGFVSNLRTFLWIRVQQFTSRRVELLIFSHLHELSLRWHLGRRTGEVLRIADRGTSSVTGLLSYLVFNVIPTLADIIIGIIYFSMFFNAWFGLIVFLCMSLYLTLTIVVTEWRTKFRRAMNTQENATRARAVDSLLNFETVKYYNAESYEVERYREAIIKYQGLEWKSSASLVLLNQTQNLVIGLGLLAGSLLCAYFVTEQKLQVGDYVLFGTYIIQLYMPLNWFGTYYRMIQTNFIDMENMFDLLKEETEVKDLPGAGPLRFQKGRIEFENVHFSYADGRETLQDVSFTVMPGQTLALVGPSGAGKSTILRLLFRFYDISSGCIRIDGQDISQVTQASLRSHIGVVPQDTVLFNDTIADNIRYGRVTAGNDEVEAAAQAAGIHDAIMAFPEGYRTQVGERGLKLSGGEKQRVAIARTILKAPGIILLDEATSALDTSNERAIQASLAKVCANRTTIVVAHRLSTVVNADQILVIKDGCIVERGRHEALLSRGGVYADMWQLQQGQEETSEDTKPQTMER

The entries are a selection whose mix differs from that of the whole data set. The source made the active and inactive calls.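 How the source made its calls: active means fluorescence ratio to DMSO below 75%, the collection mean minus 3 SD; inconclusive means too few cells collected in the well; inactive means the rest.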

The assay has as its target ATP-binding cassette sub-family B member 6 (Homo sapiens) (UniProt Q9NP58). Put plainly: blockers of ABCB6-driven porphyrin uptake – K562-ABCB6 cells, flow cytometry, MLPCN library, primary screen (AID 602162).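 Further: signal is porphyrin accumulated inside mitochondria; 100% equals median channel fluorescence of DMSO control wells; lower ratio means ABCB6 inhibition with less porphyrin fluorescence.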 The settings on record: K562-ABCB6 porphyrin accumulation, 1 h, at 10 µM, hits give low values.
Consider `CP(=S)(Nn1cnnc1)Oc1ccccc1` (centres undefined), for which the fluorescence ratio to DMSO was inactive: 99%.
For `CP(=O)(Nc1ccccc1Br)Oc1ccccc1` (centres undefined), the fluorescence ratio to DMSO is inactive: 98%.
Next, `COc1ccccc1OP(C)(=O)Nc1ccccc1` (centres undefined): inactive: 100%; `O=[N+]([O-])c1cc([N+](=O)[O-])c(O)c([N+](=O)[O-])c1.c1ccc(Oc2ccncc2)cc1`: inactive: 99%.
As for `CCOC(=O)c1ccc(NP(C)(=O)Oc2ccc(OC)cc2)cc1` (centres undefined), the fluorescence ratio to DMSO was inactive: 95%.
Next, `CCOP(C)(=S)SCC(=O)NC(C)C(=O)O` (centres undefined): inactive: 103%; `CP(=O)(Nc1ccccn1)Oc1ccc(Cl)cc1` (centres undefined): inactive: 97%.
In the case of `CP(=O)(Nc1ccc(SC(F)(F)F)cc1)Oc1ccc(Cl)cc1` (centres undefined), the fluorescence ratio to DMSO is inactive: 97%.
For `Cc1ccc(Nc2c([N+](=O)[O-])cc([N+](=O)[O-])cc2[N+](=O)[O-])cc1`, the fluorescence ratio to DMSO is inactive: 93%.
With `Cc1cccc(C)c1OP(C)(=O)Nc1ccc(SC(F)(F)F)cc1` (centres undefined), the fluorescence ratio to DMSO was inactive: 100%.
Turning to `CP(=O)(Oc1ccccc1)OC(c1ccccc1)C(F)(F)F` (centres undefined), the fluorescence ratio to DMSO was inactive: 96%.
`CP(=O)(NC(=O)Nc1ccccc1)Oc1ccccc1` (centres undefined): the fluorescence ratio to DMSO is inactive: 98%.
Next, `CCc1ccc(OP(C)(=O)N2CCN(c3ccc([N+](=O)[O-])cc3)CC2)cc1` (centres undefined): inactive: 97%; `Cc1cc(C)cc(OP(C)(=O)Nc2ccc(SC(F)(F)F)cc2)c1` (centres undefined): inactive: 99%.
Next, `COc1ccccc1-c1ccccn1.O=[N+]([O-])c1cc([N+](=O)[O-])c(O)c([N+](=O)[O-])c1`: inactive: 93%; `CCN(CC)CCCOC(=O)C(O)(c1ccccc1)c1ccccc1`: inactive: 96%.
Consider `COc1ccccc1OP(C)(=O)Nc1ccc(C)cc1` (centres undefined), for which the fluorescence ratio to DMSO was inactive: 93%.
On to `Cc1ccc(NP(C)(=O)Oc2ccccc2)c(C)c1` (centres undefined), for which the fluorescence ratio to DMSO is inactive: 95%.
Under `CCOC(=O)c1ccc(NP(C)(=O)Oc2ccccc2)cc1` (centres undefined) stands inactive: 100%; under `Cc1cc(C)cc(OP(C)(N)=O)c1` (centres undefined), inactive: 98%; under `COc1ccccc1OP(C)(=O)Nc1cc(Cl)ccc1C` (centres undefined), inactive: 102%.
For `COc1ccc(OP(C)(=O)Nc2cccc(F)c2)cc1` (centres undefined), the fluorescence ratio to DMSO is inactive: 98%.
Under `O=[N+]([O-])c1cc([N+](=O)[O-])c(Nc2cccnc2)c([N+](=O)[O-])c1` stands inactive: 96%; under `O=[N+]([O-])c1ccc2c(c1)C=Nc1ccccc1O2`, inactive: 99%.
With `CC(C)(C)c1ccc(OP(C)(=O)Nc2ccc(SC(F)(F)F)cc2)cc1` (centres undefined), the fluorescence ratio to DMSO is inactive: 102%.
`Cc1cccc(C)c1OP(C)(N)=O` (centres undefined): the fluorescence ratio to DMSO is inactive: 104%.
Take `CC1=NCCc2c1[nH]c1ccccc21.O=[N+]([O-])c1cc([N+](=O)[O-])c(O)c([N+](=O)[O-])c1`: the fluorescence ratio to DMSO was inactive: 102%.
`O=C(O)c1cccc(Nc2c([N+](=O)[O-])cc([N+](=O)[O-])cc2[N+](=O)[O-])c1`: the fluorescence ratio to DMSO is inactive: 102%.
Under `Cc1ccc(C)c(NP(C)(=O)Oc2ccccc2)c1` (centres undefined) stands inactive: 91%; under `Cc1cc(C)cc(OP(C)(=O)Nc2ccccn2)c1` (centres undefined), inactive: 98%; under `CP(=O)(Nc1cccc(Br)c1)Oc1ccccc1` (centres undefined), inactive: 98%.
Under `COc1ccccc1OP(C)(=O)Nc1cccc(Br)c1` (centres undefined) stands inactive: 97%.
Next, `CCOC(=O)c1ccc(NP(C)(=O)Oc2cc(C)cc(C)c2)cc1` (centres undefined): inactive: 99%; `Cc1cc(C)cc(OP(C)(=O)Nc2ccc(C)cc2C)c1` (centres undefined): inactive: 97%.
In the case of `O=[N+]([O-])c1cc([N+](=O)[O-])c(-c2cnn(-c3ccccc3)c2)c([N+](=O)[O-])c1`, the fluorescence ratio to DMSO was inactive: 96%.
As for `Cc1nc2ccc3ccccc3c2s1.O=[N+]([O-])c1cc([N+](=O)[O-])c(O)c([N+](=O)[O-])c1`, the fluorescence ratio to DMSO was inactive: 151%.
Under `O=[N+]([O-])c1cc([N+](=O)[O-])c(-n2nnc3ccccc32)c([N+](=O)[O-])c1` stands inactive: 95%; under `CN(Cc1cccnc1)C(=O)COc1ccc(Cl)c(Cl)c1.O=[N+]([O-])c1cc([N+](=O)[O-])c(O)c([N+](=O)[O-])c1`, inactive: 97%.
Under `CN1CCCCC1COC(=O)C1(O)c2ccccc2CCc2ccccc21` (centres undefined) stands inactive: 95%; under `COc1ccccc1OP(C)(=O)Nc1c(C)cccc1C` (centres undefined), inactive: 90%; under `COc1ccc(-c2ccccn2)cc1.O=[N+]([O-])c1cc([N+](=O)[O-])c(O)c([N+](=O)[O-])c1`, inactive: 99%.
With `CCCOc1ccc(NP(C)(=O)Oc2ccc(Cl)cc2)cc1` (centres undefined), the fluorescence ratio to DMSO was inactive: 98%.
Next, `CP(=O)(Nc1ccc(SC(F)(F)F)cc1)Oc1ccccc1` (centres undefined): inactive: 96%; `CC1=C2N=C(C=C3N=C(C(C)=C4[N-][C@@](C)([C@@H]5N=C1[C@](C)(CCC(=O)NC[C@@H](C)OP(=O)([O-])O[C@H]1[C@@H](O)[C@@H](n6cnc7cc(C)c(C)cc76)O[C@@H]1CO)[C@H]5CC(N)=O)[C@@](C)(CC(N)=O)[C@@H]4CCC(N)=O)[C@@](C)(CC(N)=O)[C@@H]3CCC(N)=O)C(C)(C)[C@@H]2CCC(N)=O.[C-]#N.[Co+3]`: inactive: 93%.
As for `O=[N+]([O-])c1cc([N+](=O)[O-])c(Nc2nnnn2CCO)c([N+](=O)[O-])c1`, the fluorescence ratio to DMSO is inactive: 102%.
Next, `CCOC(=O)C(CC)C1=NC(C)(C)Cc2ccccc21.O=[N+]([O-])c1cc([N+](=O)[O-])c(O)c([N+](=O)[O-])c1` (centres undefined): inactive: 100%; `O=[N+]([O-])c1ccc(OP2(=O)COCCO2)cc1` (centres undefined): inactive: 98%.
Under `Cc1cc(-c2cccc3ccccc23)c(C)cn1.O=[N+]([O-])c1cc([N+](=O)[O-])c(O)c([N+](=O)[O-])c1` stands inactive: 96%; under `O=[N+]([O-])c1cc([N+](=O)[O-])c(NCC2CCS(=O)(=O)C2)c([N+](=O)[O-])c1` (centres undefined), inactive: 104%.
